Chains of the proteins cited; added tags and fusions are not shown. Lines headed by an entry give the natural chain unless they say otherwise; changes in a name come on top.
UniProt P42866: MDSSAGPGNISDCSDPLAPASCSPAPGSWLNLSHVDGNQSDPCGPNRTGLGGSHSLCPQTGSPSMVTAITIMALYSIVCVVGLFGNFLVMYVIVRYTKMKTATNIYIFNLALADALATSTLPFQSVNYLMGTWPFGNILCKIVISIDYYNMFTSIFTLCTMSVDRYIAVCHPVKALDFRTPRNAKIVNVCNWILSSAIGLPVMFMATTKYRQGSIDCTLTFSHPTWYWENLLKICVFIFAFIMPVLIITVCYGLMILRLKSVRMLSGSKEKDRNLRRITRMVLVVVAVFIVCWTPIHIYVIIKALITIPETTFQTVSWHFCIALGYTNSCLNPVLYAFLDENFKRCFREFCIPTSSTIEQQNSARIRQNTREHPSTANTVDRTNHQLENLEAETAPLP
UniProt P32300: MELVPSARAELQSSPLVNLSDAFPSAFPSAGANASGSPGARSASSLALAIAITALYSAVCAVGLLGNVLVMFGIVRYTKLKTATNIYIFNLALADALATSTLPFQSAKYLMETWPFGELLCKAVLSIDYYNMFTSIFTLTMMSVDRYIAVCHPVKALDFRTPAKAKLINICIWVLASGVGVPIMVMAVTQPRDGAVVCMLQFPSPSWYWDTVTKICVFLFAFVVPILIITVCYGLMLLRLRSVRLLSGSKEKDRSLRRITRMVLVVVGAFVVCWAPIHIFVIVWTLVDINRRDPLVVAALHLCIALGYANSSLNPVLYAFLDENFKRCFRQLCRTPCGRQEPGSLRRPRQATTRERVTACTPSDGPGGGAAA
UniProt P33534: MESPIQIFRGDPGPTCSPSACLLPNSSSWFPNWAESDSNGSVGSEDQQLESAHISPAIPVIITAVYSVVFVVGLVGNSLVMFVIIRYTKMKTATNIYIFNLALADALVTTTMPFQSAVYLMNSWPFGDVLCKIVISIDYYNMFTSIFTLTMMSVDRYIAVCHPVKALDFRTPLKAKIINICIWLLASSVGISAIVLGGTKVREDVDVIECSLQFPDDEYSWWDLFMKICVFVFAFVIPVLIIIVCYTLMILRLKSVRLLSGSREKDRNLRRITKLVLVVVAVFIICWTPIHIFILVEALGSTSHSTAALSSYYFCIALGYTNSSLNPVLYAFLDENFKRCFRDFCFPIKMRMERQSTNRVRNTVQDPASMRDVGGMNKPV

In ChEMBL document CHEMBL1126802, “Structure-affinity relationship studies on 5-HT1A receptor ligands. 1. Heterobicyclic phenylpiperazines with N4-alkyl substituents” (J Med Chem, 1993):

Target: Opioid receptor (Mus musculus, UniProt P42866+P32300+P33534)
Test: Tested for displacement of radioligand [3H]-Naloxone from opiate receptor
Type: protein assay

CCOC(=O)C1(c2ccccc2)CCN(C)CC1 [MEPERIDINE]
IC50: 500 nM
